# Measurements: US9353061B2, “3,5,N-trihydroxy-alkanamide and derivatives: method for making same and use thereof” (Academia Sinica, priority 2012, dated 2016)
# Tested on: HCT116 colorectal cancer cells
# Test: Cell viability (MTT) under normoxia or hypoxia, oxaliplatin resistance
# Conditions: oxaliplatin 5 μM
substance,measurement,setting,value
oxaliplatin,cytotoxicity in HCT116 cells under normoxia,"72 hours, normoxia",induced cytotoxicity
same,cytotoxicity in HCT116 cells under hypoxia,hypoxia for the first 24 hours,resistance was seen
